Data on 102 compounds can be found in PubChem BioAssay AID720508 (The Scripps Research Institute Molecular Screening Center, 2013).

Amino acid sequences for entries named in this document (tags omitted). A change or cut given only in a name is not applied to a line headed by its entry.
UniProt P02675: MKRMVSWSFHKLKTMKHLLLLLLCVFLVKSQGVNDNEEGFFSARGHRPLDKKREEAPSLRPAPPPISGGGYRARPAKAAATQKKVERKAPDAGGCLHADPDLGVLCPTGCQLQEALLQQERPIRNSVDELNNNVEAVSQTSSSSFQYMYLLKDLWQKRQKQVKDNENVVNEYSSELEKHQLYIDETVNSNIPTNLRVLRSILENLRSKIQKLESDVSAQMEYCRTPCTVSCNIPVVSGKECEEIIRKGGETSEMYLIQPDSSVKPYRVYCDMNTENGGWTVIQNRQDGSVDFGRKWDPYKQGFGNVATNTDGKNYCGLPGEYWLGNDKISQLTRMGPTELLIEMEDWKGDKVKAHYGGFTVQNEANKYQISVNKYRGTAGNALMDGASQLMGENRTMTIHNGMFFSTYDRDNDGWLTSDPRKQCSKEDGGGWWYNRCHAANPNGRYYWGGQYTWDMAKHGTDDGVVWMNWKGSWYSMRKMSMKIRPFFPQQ

Structures are written as SMILES. The list shows a part of the results, in another mix than the full data. Active and inactive are the calls of the source.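 Rule for the calls: active = inhibition above the mean of compounds falling within the control limits plus 3 SD of them (cut at about 14% in these data); inactive = the rest.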

This assay addresses Fibrinogen beta chain (Homo sapiens) (UniProt P02675). Put plainly: small molecules displacing Tn7 from DD(E) complex – biochemical, fluorescence polarization, human fibrin, Tn7 probe, primary screen (AID 720508).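 Note: 0% = plate median of compound wells and 100% = 10 µM Aha-Tn7 peptide.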 As to conditions: FP displacement of FITC-Tn7 peptide from fibrin DD(E); at 8.3 µM; stronger effect = higher value; 0% = median of compound wells per plate.
The inhibition is the relative decrease from the control value, in per cent. For `O=C(O)COc1ccc([As](=O)(O)O)cc1[N+](=O)[O-]`, the inhibition is inactive: 2.12%.
As for `Nc1ccccc1[As](=O)(O)c1ccccc1`, the figure is inactive: -15.5%; as for `CCOP1(=S)c2c(C)nn(CCC#N)c2N=C(c2ccccc2F)N1C` (configuration not stated), inactive: 5.95%; as for `O=P(Nc1nccs1)(Oc1ccccc1)Oc1ccccc1`, inactive: 5.06%.
Then `N#CCCN(C(=O)COC(=O)C(O)(c1ccccc1)c1ccccc1)c1ccc(F)cc1`, with inactive: -0.08%; and `CN(C(=O)Cc1ccccc1)[C@@H]1CC[C@]2(CCCO2)C[C@H]1N1CCCC1`, with inactive: 7.23%; and `CCOP1(=S)c2c(C)nn(CCC#N)c2N=C(c2ccc(F)cc2)N1C` (configuration not stated), with inactive: 2.89%.
Then `O=[N+]([O-])c1ccc2c(c1)nnn2O`, with inactive: -3.14%; and `CN(C)C(=O)c1cc([N+](=O)[O-])cc2c1-c1c(cc([N+](=O)[O-])cc1[N+](=O)[O-])C2=O`, with inactive: 0.85%.
As to `CN(C(=O)Cc1ccc(Cl)c(Cl)c1)[C@H]1CC[C@@]2(CCCO2)C[C@@H]1N1CCCC1`, the inhibition was inactive: -1.44%.
As for `Cc1cccc(OCC(=O)OC2CN3CCC2CC3)c1` (configuration not stated), the figure is inactive: -4.36%; as for `O=[As](O)(c1cccc(O)c1)c1cccc(O)c1`, inactive: -6.05%; as for `O=C(OC1CN2CCC1CC2)c1ccc(Cl)cc1` (configuration not stated), inactive: 2.01%.
As for `O=[As](O)(O)c1cccnc1`, the figure is inactive: -8.4%.
Then `COc1cc(C(=O)NCC2(N3CCOCC3)CCCCC2)cc(Cl)c1OC(C)C`, with inactive: 3.18%; and `CS(=O)(=O)c1ccc(Cl)c(NC(=O)COC(=O)C(O)(c2ccccc2)c2ccccc2)c1`, with inactive: -9.98%; and `COc1cc(C2NCCC3(OCCO3)C2(C)C)cc(OC)c1OC` (configuration not stated), with inactive: 2.65%.
As to `CCOP(=O)(Nc1cccc2ccccc12)OCC`, the inhibition is inactive: -1%.
Then `Nc1cccc2c([As](=O)(O)O)cccc12`, with active: 16.1%; and `Cc1ccc(NCCc2c([N+](=O)[O-])cc([N+](=O)[O-])cc2[N+](=O)[O-])cc1`, with inactive: 6.88%; and `CCCOP(=S)(Nc1nc(N)cc(=O)[nH]1)OCCC`, with inactive: -8.84%.
`Clc1n[nH]nc1-c1nn[nH][15n]1`: the inhibition is inactive: 8.11%.
Then `O=P1(N(CCCl)CCCl)NCCC(C(F)(F)F)O1` (configuration not stated), with inactive: -2.51%; and `CC(C)(C)C(=O)NC(Sc1ncccn1)C(Cl)(Cl)Cl` (configuration not stated), with inactive: 4.94%.
As for `CCC1=CC2Cc3nc4ccc(Cl)cc4c(N)c3C(C1)C2` (configuration not stated), the figure is inactive: -2.98%; as for `O=P1(Nc2ccccn2)COc2ccccc2OC1`, inactive: -3.37%.
As for `CCOP(=O)(NC(=NC(C)c1ccccc1)NC(C)c1ccccc1)OCC` (configuration not stated), the figure is inactive: 5.52%.
Regarding `CCOP(=O)(Nc1ccc(C)cn1)OCC`, the inhibition is inactive: 6.05%.
Then `CN(CCCl)Cc1cc(Cl)c(NC2=NCCN2)c(Cl)c1`, with inactive: 1.92%.
As for `CC(C)/C=N\N=C(\N)N[N+](=O)[O-]`, the figure is inactive: 5.18%; as for `CC1(CBr)Cn2c(nc3ccccc3c2=O)S1` (configuration not stated), inactive: -5.41%; as for `COc1ccccc1CNC(=O)COC(=O)C(O)(c1ccccc1)c1ccccc1`, inactive: -4.17%.
In the case of `CN(C)C1(CNC(=O)c2ccc(S(C)(=O)=O)cc2)CCCCC1`, the inhibition was inactive: 1.51%.
As for `O=C(/C=C/c1ccccc1)OC1CN2CCC1CC2` (configuration not stated), the figure is inactive: -5.73%; as for `CCCC1OP(=O)(Nc2ccccc2)OCC1CC` (configuration not stated), inactive: 0.34%.
As for `Cc1nn(-c2ccccc2)c2c1P(=O)(N1CCOCC1)N(C)C(c1ccccc1)=N2` (configuration not stated), the figure is inactive: -1.52%; as for `Cc1ccc(C(=O)OC2CN3CCC2CC3)cc1` (configuration not stated), inactive: 0.3%.
As for `CC1CCC(C(C)C)C(OP(=O)(Nc2ccccn2)c2ccccc2)C1` (configuration not stated), the figure is inactive: 2.05%; as for `Nc1cccc([As](=O)(O)c2ccccc2)c1`, inactive: 0.49%; as for `O=[As](O)(c1cccs1)c1cccs1`, inactive: -2.07%.
For the compound `Cc1ccc(OCC(=O)OC2CN3CCC2CC3)cc1` (configuration not stated), the inhibition was inactive: -0.04%.
Then `NS(=O)(=O)c1cccc(NC(=O)COC(=O)C(O)(c2ccccc2)c2ccccc2)c1`, with inactive: -5%.
As for `O=P1(Nc2ccc(Br)cn2)COc2ccccc2OC1`, the figure is inactive: -1.86%; as for `Cc1ccc(S(=O)(=O)N(CCCN)CCCc2c(C)nc(N)[nH]c2=O)cc1`, inactive: 1.83%; as for `O=P1(Nc2ncccn2)COc2ccccc2OC1`, inactive: 1.5%.
Then `COP(=O)(OC)N1CC1c1ccccc1` (configuration not stated), with inactive: -5.05%.
As to `CCCCOc1ccc(C(=O)NCC2(N3CCCCC3)CCCCC2)cc1OC`, the inhibition was inactive: -5.95%.
Then `Cc1cc(SC(NC(=O)c2ccccc2)C(Cl)(Cl)Cl)nc(C(C)C)n1` (configuration not stated), with inactive: -3.84%.
As for `O=C(O)C(O)c1ccc(N(CCCl)CCCl)cc1` (configuration not stated), the inhibition was inactive: -3.11%.
For `CCOC(=O)Nc1ccc([As](=O)(O)O)c(O)c1`, the inhibition is inactive: 0.94%.
As for `CC1CCNP(=O)(N(CCCl)CCCl)O1` (configuration not stated), the figure is inactive: -9.66%.
As for `Cc1cc(SC(NC=O)C(Cl)(Cl)Cl)ncn1` (configuration not stated), the figure is inactive: -3.03%.
As for `O=P(Nc1ccccn1)(c1cccc2ccccc12)c1cccc2ccccc12`, the figure is inactive: 2.09%.
For the compound `O=[N+]([O-])c1ccc(Nc2ccc(Oc3ccc([N+](=O)[O-])cc3[N+](=O)[O-])cc2)c([N+](=O)[O-])c1`, the inhibition was inactive: 8.72%.
Regarding `CCOC(=O)Nc1cccc([As](=O)(O)O)c1`, the inhibition is inactive: -0.19%.
As for `O=C(O)C(=O)c1ccc(N(CCCl)CCCl)cc1`, the figure is inactive: 4.58%; as for `O=C(COc1ccccc1)OC1CN2CCC1CC2` (configuration not stated), inactive: 3.23%; as for `O=C(Nc1ccncc1[N+](=O)[O-])c1ccc([N+](=O)[O-])cc1[N+](=O)[O-]`, inactive: 1.57%.
`COP1(=S)c2c(C)nn(CCC#N)c2N=C(c2ccc(F)cc2)N1C` (configuration not stated): the inhibition was inactive: 5.44%.
Then `COC(=O)C1(C)COP(=O)(N2CCCC2)OC1` (configuration not stated), with inactive: -8.5%.
`CCC(C)N(CC(C)C)C(=S)SC(NC(C)=O)C(Cl)(Cl)Cl` (configuration not stated): the inhibition was inactive: 8.51%.
In the case of `O=C(OC1CN2CCC1CC2)c1cccc([N+](=O)[O-])c1` (configuration not stated), the inhibition was inactive: 9.31%.
As for `CCOC(=O)c1ccc(NC(=O)C(C)(CCl)SC)cc1` (configuration not stated), the figure is inactive: 1.3%; as for `O=P1(N(CCCl)CCCl)Nc2ccccc2N1`, inactive: 2.29%.
Then `O=P1(N(CCCl)CCCl)OCCCN1CCCl` (configuration not stated), with inactive: 3.42%.
Then `COc1ccc2nc(NP(=O)(c3ccccc3)c3ccccc3)sc2c1`, with inactive: -5.76%; and `COc1cc(I)ccc1[As](=O)(O)O`, with inactive: -4.92%; and `Cc1c2c(nc3ccccc13)SC(C(Cl)Cl)C2` (configuration not stated), with inactive: -2.15%.
Regarding `O=C(OC1CN2CCC1CC2)C12CC3CC(CC(C3)C1)C2` (configuration not stated), the inhibition was inactive: -4.08%.
As for `Cc1cc(=O)[nH]c(N[N+](=O)[O-])n1`, the figure is inactive: 8.42%; as for `O=[N+]([O-])c1cc(Oc2ccc([N+](=O)[O-])cc2C(F)(F)F)cc([N+](=O)[O-])c1`, inactive: 3.35%.
Then `COc1ccc(N/C(=N/P(=O)(N2CCOCC2)N2CCOCC2)N2CCOCC2)cc1`, with inactive: 3.25%.
As for `Cc1ccc(OP(=O)(Nc2ccc([N+](=O)[O-])cn2)Oc2ccc(C)cc2)cc1`, the figure is inactive: -1.77%.
For `[N-]=[N+]=NC1CCCCC1NC(=O)c1cc([N+](=O)[O-])cc([N+](=O)[O-])c1` (configuration not stated), the inhibition was inactive: 9.26%.
Then `Cc1ccc2nc3c(c(C)c2c1)CC(C(Cl)Cl)S3` (configuration not stated), with inactive: -1.07%.
For the compound `O=[As](O)(c1ccc(O)cc1)c1ccccc1O`, the inhibition was inactive: -5.2%.
Then `C[As](=O)(O)c1cccc(C(=O)O)c1`, with inactive: -2.75%.
Then `O=[N+]([O-])c1ccc(-c2cc([N+](=O)[O-])c(O)c([N+](=O)[O-])c2)cc1`, with inactive: 1.94%; and `COc1cc(C(=O)NCC2(N3CCOCC3)CCCCC2)ccc1OCC(C)C`, with inactive: -0.79%.
Turning to `CC(C)NC(=O)NP(=O)(Oc1ccccc1)Oc1ccccc1`, the inhibition was inactive: 4.5%.
As for `O=C(OC1CN2CCC1CC2)c1cccc2[nH]cnc12` (configuration not stated), the figure is inactive: 3.33%; as for `CCN(CC)C(=S)SC(NC=O)C(Cl)(Cl)Cl` (configuration not stated), inactive: 5.59%.
As for `ClCCSc1nnc(-c2cccnc2)o1`, the figure is inactive: -5.87%; as for `COC(=O)C1(C)COP(=O)(N2CCCCCC2)OC1` (configuration not stated), inactive: -0.44%.
`CC(C)c1ccc(OP(=O)(Nc2ccccn2)Oc2ccccc2F)cc1` (configuration not stated): the inhibition was inactive: 4.34%.
Then `CCn1c(=O)n(C2CCN(CC3CCCCCCC3)C[C@H]2CO)c2ccccc21` (some centres not stated), with inactive: -9.14%.
As for `Cc1cc(SC(NC(=O)c2ccc(F)cc2)C(Cl)(Cl)Cl)ncn1` (configuration not stated), the figure is inactive: -0.11%; as for `CCOP(=O)(Nc1ccccc1)OCC`, inactive: -1.5%; as for `Cc1ccc(NP(=O)(Oc2ccccc2F)Oc2ccccc2F)nc1`, inactive: -1.47%.
As for `O=P(Nc1nc2ccc(Cl)cc2s1)(c1ccccc1)c1ccccc1`, the figure is inactive: -1.74%.
Regarding `CN(C)P(=O)(N(C)C)n1c(Nc2ccccc2)nnc1-c1ccccc1`, the inhibition is inactive: 3.85%.
For the compound `CC(=O)Nc1ccc([As](=O)(O)O)cc1`, the inhibition is inactive: 5.22%.
Then `O=C(O)c1ccccc1[As](=O)(O)O`, with inactive: -1.98%.
For the compound `CCCC1OP(N)(=O)OCC1CC` (configuration not stated), the inhibition is inactive: 2.87%.
As for `Nc1cccc2ccc([As](=O)(O)O)cc12`, the figure is inactive: -0.16%.
As for `CN(C(=O)Cc1ccccc1)C1CC[C@@]2(CCCO2)C[C@@H]1N1CCCC1` (some centres not stated), the figure is inactive: -5.14%; as for `CCN(N=Nc1nonc1N)c1nonc1N`, inactive: -1.32%; as for `CN1CCCC(OC(=O)C(c2ccccc2)c2ccccc2)C1` (configuration not stated), inactive: 4.95%.
Then `Clc1ccc(Cl)c(NC2=NCC(CBr)S2)c1` (configuration not stated), with inactive: 4.42%; and `COc1ccccc1OP(=O)(Nc1ccc(C)cn1)Oc1ccccc1OC`, with inactive: 2.26%.
As for `Cc1ccc(OP(=O)(Nc2nccs2)Oc2ccc(C)cc2)cc1`, the inhibition is inactive: -4.65%.
As for `Cc1ccc(N/C(=N/P(=O)(N2CCOCC2)N2CCOCC2)N2CCOCC2)cc1`, the figure is inactive: 1.08%.
